Experimental data: patent US7476676B2, “Methods for increasing bone formation using inhibitors of glycogen synthase kinase-3β” (Roche Palo Alto LLC, priority 2002, dated 2009)
pIC50: −log10 of the molar value.

Sequences of proteins named here, by UniProt entry; tags and fusion partners are left off. Residues count along the entry.
UniProt G1T8E2, 1-432: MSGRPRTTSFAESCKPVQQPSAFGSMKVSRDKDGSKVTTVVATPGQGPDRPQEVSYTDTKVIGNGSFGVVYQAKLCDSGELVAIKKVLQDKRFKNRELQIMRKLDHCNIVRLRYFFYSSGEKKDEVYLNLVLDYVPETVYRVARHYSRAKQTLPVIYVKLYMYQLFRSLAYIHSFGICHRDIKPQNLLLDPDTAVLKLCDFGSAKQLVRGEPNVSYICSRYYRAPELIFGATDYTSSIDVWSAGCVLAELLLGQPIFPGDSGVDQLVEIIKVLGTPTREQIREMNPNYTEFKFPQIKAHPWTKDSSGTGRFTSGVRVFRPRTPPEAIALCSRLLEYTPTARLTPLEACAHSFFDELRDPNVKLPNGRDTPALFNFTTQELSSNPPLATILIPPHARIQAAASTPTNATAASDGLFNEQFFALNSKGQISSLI

Biological target: truncated form of recombinant rabbit GSK-3β enzyme (Oryctolagus cuniculus, UniProt G1T8E2)
Experiment: Inhibition of Glycogen Synthase Kinase-3β in vitro assay
Format: biochemical
Conditions: tested form: HCl

pIC50: 7.70
Compound: Cn1cc(C2=C(c3cccc(OCCN)c3)C(=O)NC2=O)c2ccccc21
